Assay results: patent US9399631B2, “Polyphenol proteasome inhibitors, synthesis, and methods of use” (UNIVERSITY OF SOUTH FLORIDA, priority 2003, dated 2016)

Chains of the proteins cited; added tags and fusions are not shown. Residues count along the entry.
UniProt G1T4Q9, 1-263: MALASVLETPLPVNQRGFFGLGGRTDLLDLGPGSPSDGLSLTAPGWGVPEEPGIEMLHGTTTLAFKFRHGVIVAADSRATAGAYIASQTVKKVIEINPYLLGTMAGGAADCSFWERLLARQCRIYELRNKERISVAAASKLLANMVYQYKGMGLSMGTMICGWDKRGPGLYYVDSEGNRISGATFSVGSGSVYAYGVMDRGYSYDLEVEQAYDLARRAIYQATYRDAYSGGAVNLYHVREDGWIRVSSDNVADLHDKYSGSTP

Target: 20S eukaryotic proteasome (Oryctolagus cuniculus, UniProt G1T4Q9)
Assay: Inhibition of chymotrypsin-like activity of purified eukaryotic 20S proteasome (Suc-Leu-Leu-Val-Tyr-AMC)
Settings: rabbit 20S proteasome

O=C(O[C@@H]1Cc2c(O)cc(O)cc2O[C@H]1c1ccc(O)c(O)c1)c1cc(O)c(O)c(O)c1 gave an IC50 of 505 nM.
